According to patent US20260248717A1, “METHOD OF TREATING LOWER TRACT UROTHELIAL CANCER” (TARIS Biomedical LLC, priority 2016, published 2026):

Assay: Tolerability of gemcitabine bladder perfusion in the orthotopic rat model
Conditions: high dose treatment of gemcitabine (350 μg/ml)

Nc1ccn([C@@H]2O[C@H](CO)[C@@H](O)C2(F)F)c(=O)n1 [gemcitabine, 2′,2′-difluorodeoxycytidine]
mortality: 2/6
